Source: patent US20220177542A1 (priority 2020, published 2022)

The chains behind the UniProt entries cited, without tags or fusion partners. Where a name states a change or a piece, a line headed by the entry shows the natural chain unless it says otherwise. Residues count along the entry.
UniProt P01903, 26-216 limits assumed: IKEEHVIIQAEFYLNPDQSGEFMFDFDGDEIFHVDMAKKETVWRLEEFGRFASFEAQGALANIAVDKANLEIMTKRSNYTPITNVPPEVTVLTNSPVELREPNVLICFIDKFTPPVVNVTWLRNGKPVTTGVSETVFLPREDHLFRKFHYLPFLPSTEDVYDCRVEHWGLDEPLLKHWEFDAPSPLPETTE

Key:
[1] = target: T1, HLA-DRB1*15:01 monomer (Homo sapiens, UniProt P01903+P01911); format: binding
T1 construct: the extracellular domain of the MHC class II α chain and β chain to which leucine zipper motifs are added; leucine zipper motif

[2] = target: T2, HLA-DRB1*03:01 monomer (Homo sapiens, UniProt P01903+P01911, A100K/A102G/A103R/A169T/F55Y/I96L/K41T/L162R/M171V/P40S/Q125H/Q178H/Q39Y/R42S/S66N/T106N/T262R/W38E/Y61H); format: binding
T2 construct: the extracellular domain of the MHC class II α chain and β chain to which leucine zipper motifs are added; leucine zipper motif

Sequence: PKYVKQNTLKLAT
- % pept exch [1]: 85.12%
- % pept exch [2]: 41.71%
